{"source": "ChEMBL document CHEMBL3774373", "about": "“Activity and Predicted Nephrotoxicity of Synthetic Antibiotics Based on Polymyxin B” (J Med Chem, 2016)", "tested_on": "Staphylococcus aureus", "conditions": "ATCC 25923"}
{"sequence": "GENTAMICIN", "values": [{"measurement": "MIC", "value": 0.5, "unit": "µg/mL"}]}
